# Reference: PubChem BioAssay (NCATS)
# Amino acid sequences for entries named in this document (tags omitted).
# UniProt P27695, whole entry: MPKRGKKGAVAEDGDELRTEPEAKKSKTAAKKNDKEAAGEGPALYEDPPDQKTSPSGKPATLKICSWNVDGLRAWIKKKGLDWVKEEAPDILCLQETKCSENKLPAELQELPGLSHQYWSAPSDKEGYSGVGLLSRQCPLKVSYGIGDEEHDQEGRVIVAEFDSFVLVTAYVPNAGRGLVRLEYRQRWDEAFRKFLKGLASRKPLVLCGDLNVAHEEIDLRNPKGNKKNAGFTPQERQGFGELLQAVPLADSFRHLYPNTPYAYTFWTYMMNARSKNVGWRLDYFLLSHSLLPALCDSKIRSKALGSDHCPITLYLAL
# UniProt P46063, whole entry: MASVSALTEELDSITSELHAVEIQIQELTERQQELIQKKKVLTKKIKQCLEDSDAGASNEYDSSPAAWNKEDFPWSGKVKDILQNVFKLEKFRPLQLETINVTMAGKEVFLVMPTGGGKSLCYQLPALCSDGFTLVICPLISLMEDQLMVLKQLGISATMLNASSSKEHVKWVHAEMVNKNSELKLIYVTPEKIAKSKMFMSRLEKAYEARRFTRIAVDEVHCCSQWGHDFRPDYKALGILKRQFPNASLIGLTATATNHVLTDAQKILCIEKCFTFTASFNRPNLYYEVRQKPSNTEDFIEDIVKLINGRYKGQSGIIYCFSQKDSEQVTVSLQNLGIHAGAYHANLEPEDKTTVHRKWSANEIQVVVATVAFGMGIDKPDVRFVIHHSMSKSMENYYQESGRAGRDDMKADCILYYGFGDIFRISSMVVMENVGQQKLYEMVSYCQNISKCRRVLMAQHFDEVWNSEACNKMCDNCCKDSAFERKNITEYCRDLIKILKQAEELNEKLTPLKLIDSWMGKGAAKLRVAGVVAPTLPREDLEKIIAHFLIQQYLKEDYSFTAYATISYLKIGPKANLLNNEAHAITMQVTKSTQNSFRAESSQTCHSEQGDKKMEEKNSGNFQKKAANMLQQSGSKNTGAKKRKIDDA
# This is a selection; strong and weak results do not stand in their true shares. Results filed as inconclusive are left out. Activity calls are given as the source filed them. Unless noted, the call rests on the fitted dose curve; in most records, active means well fitted curve in the direction sought with a large enough effect; inconclusive means small, poorly fitted or top-dose-only effect, or another doubt; inactive means no such curve, though single readings can be large; an effect the other way counts as inactive or inconclusive.
# Key:
# [1] = qHTS Assay for Identification of Small Molecule Inducers of Hypoxia Response (AID 2120; active means well fitted curve in the direction sought with a large enough effect in the signal ratio, with a control signal flat, not every such curve was filed as active; the % refers to the signal ratio; further: 0% is about no effect); conditions: hypoxia response reporter cells, beta-lactamase ratio readout; at 104 µM (top of the series)
# From the text: (§1) NIH Chemical Genomics Center [NCGC]
# NIH Molecular Libraries Screening Centers Network [MLSCN]
# National Institutes of Environmental Health Sciences [NIEHS]
# National Toxicology Program [NTP]
# Hypoxia-inducible factor-1 (HIF-1) is the major hypoxia-regulated transcription factor that controls cellular responses to low oxygen concentration. HIF-1 is composed of two subunits: hypoxia responsive HIF-1a and constitutively expressed HIF-1b, which is also known as aryl hydrocarbon receptor nuclear translocator. During hypoxic conditions, HIF-1a heterodimerizes with HIF-1b and translocates into the nucleus where the HIF-1 complex binds to the hypoxia-response element (HRE) and activates expression of target genes such as VEGF (vascular endothelial growth factor). The HIF-1 pathway is essential to normal growth and development, and is involved in the pathophysiology of cancer, inflammation, and ischemia.
# Using a beta-lactamase reporter-gene under control of the hypoxia response element, a cell-based assay [CellSensor(TM) HRE-bla ME-180 developed by Invitrogen Corp.] was used to measure hypoxia-induced signaling. Library compounds were measured for their ability to induce the reporter gene activity. Compounds were screened in a titration series in 1536-well format. The inducers were identified based on the AC50 values derived from the screening data.
# NCGC Assay Protocol Summary
# 2500 cells/5uL in Opti-MEM medium containing 0.5% dialyzed FBS, 0.1 mM NEAA, 1 mM sodium pyruvate and 10 mM HEPES was dispensed into 1536-well plates and cells were cultured at 37 degrees Celsius for 4-5 hours and then 23 nL of compounds or DMSO were delivered to each well using a pin tool. The plates were incubated at 37 degrees Celsius for 17 hours. 1 uL of CCF4-dye mixture was added to each well. After incubated at room temperature for 2.5 hours the plates were measured on an EnVision plate reader at Excitation 405nm, Emission1=460nm and Emission 2=530nm. The %Activity was determined from the ratio of 460nm/530nm.
# [2] = qHTS Assay for Lipid Storage Modulators (AID 1519; calls by dose curve; further: on the % scale 0 is the no-effect control and ±100 the full control effect); conditions: Drosophila S3 cells, BODIPY lipid droplet/cell ratio, laser cytometry, cells loaded with oleic acid; at 57.5 µM (top of the series) unless noted
# [3] = target: DNA repair nuclease/redox regulator APEX1 (Homo sapiens) (UniProt P27695); assay: qHTS Validation Assay for Inhibitors of the Human Apurinic/apyrimidinic Endonuclease 1 (APE1) (AID 1705;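 further: TAMRA fluorescence gain over two minutes as APE1 cuts a quenched THF abasic duplex; on the % scale 0 is the no-effect control and ±100 the full control effect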); conditions: purified APE1 endonuclease activity, fluorescence, titration; at 57.1 µM (top of the series)
# Procedure, shortened: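 Fluorogenic double-stranded THF abasic-site substrate (5'-TAMRA/3'-BHQ-2), 50 nM final. Enzyme preincubated with compound 15 min at room temperature, then substrate added. Kinetic fluorescence (ex 525/em 598 nm) read three times at 60 s intervals; activity taken as third-minus-first read difference.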
# [4] = qHTS Assay for Modulators of Human Peripheral Myelin Protein 22 (PMP22) Expression/Activity (AID 1967; active means well fitted curve in the direction sought with a large enough effect in the signal ratio; the % refers to the signal ratio;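 further: 0% = untreated cells and 100% end not stated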); conditions: Cell-based PMP22 reporter, dual-color luciferase ratio, 0% = compound-free control cells, mouse Pmp22 promoter in mouse Schwann cells; at 115 µM (top of the series)
# Procedure, shortened: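 Mouse MSC80 Schwann cells carrying Pmp22 promoter–green click beetle luciferase plus EF-alpha–red luciferase control, dosed 24 h at 37 °C. Dual-filter luminescence, overlap-corrected; %Activity from green/red ratio normalised to untreated cells, concentration-response curves fitted.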
# [5] = target: ATP-dependent DNA helicase Q1 (Homo sapiens) (UniProt P46063); assay: qHTS Validation Assay for Inhibitors of RecQ-Like Dna Helicase 1 (RECQ1) (AID 2353); conditions: recombinant RECQ1 helicase DNA unwinding assay; at 25.6 µM (top of the series);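 further: plate controls were DMSO vehicle for no effect and enzyme-free control for full effect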
# From the text: Survival of cells and the faithful propagation of the genome depend on elaborate mechanisms of detecting and repairing DNA damage. Treatment of advanced cancer relies on radiation therapy or chemotherapy, which kill cancer cells by causing extensive DNA damage. It is often found, that cancer cells develop resistance to therapy through enhanced activity of DNA repair functions; this has led to an increased interest in developing drugs that interfere with DNA repair, which could sensitize cancer cells to conventional therapy.
# This validation qHTS assay pertains to human RECQ1, which is important in resolving abnormal DNA structures formed during replication or homologous recombination. Shutting down the expression of RECQ1 leads to chromosomal instability and higher radiation sensitivity in cultured cells.
# The validation assay was a fluorescence quenching based kinetic qHTS for RECQ1 Helicase DNA unwinding. The activity was measured as ATP-dependent separation of a 20-bp DNA duplex extended by 30-nt single-stranded tails (forked duplex). The forked DNA substrate was tagged with rhodamine fluorophore (carboxytetramethyl rhodamine, TAMRA) and BHQ-2 (Black Hole Quencher 2) dark quencher. Strand separation results in an increase in the fluorescence of TAMRA (excitation 525 nm, emission 598 nm). […]
# [6] = Cytometric Cell-Based qHTS for Inhibitors of the mTORC1 Signaling Pathway in MEF (Tsc2-/-, p53-/-) Cells (AID 2660); conditions: mTORC1 pathway cytometry; at 38.3 µM (top of the series);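 further: Tsc2 and p53 null MEFs carrying empty vector with compound for 24 h; percent of cells above a phospho-rpS6 to PI ratio cutoff in each well; plate controls were DMSO for no effect and rapamycin for full effect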
# From the text: NIH Molecular Libraries Probe Production Centers Network [MLPCN]
# as §1
# Assay Submitter (PI): Blenis, John; Hoffman, Greg; Harvard University
# NCGC Assay Overview: The mammalian target of rapamycin (mTOR) is an intracellular serine/threonine kinase Aberrant regulation of mTOR signaling plays a causative role in a number of human diseases, including cancer, benign tumors such as lymphangioleiomyomatosis (LAM) and Tuberous Sclerosis Complex (TSC), and metabolic diseases such as diabetes and obesity. This project aims to identify inhibitors of ribosomal protein S6 (rpS6) phosphorylation. The phosphorylation of rpS6 is a key event downstream of mTOR activation. […]
# For quantitative high throughput analysis of mTORC1 signaling, we developed a cell-based assay for immuno-fluorescence based detection of rpS6 phosphorylation on the Acumen Explorer that will be used a platform for the primary small molecule screen. […] The fluorescence emission from the Alexa-488 conjugated rpS6 phospho-235/236 antibody staining is selected using a […] band pass filter. Fluorescence emission from the PI stain is selected using a 575-640 nm band pass filter. The normalized phospho-S6 staining is calculated as the ratio of the integrated Alexa 488 intensity divided by the integrated PI intensity for the single concentration rapamycin control (7.5 nM) and DMSO columns. […]
# [7] = High Content Imaging Cell-Based qHTS for Inhibitors of the mTORC1 Signaling Pathway in MEF (Tsc2-/-, p53-/-) Cells (AID 2666); conditions: at 38.3 µM (top of the series);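 further: percent of cells scored positive for phospho-rpS6 Ser235/236 immunostaining by imaging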
# Procedure, shortened: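 Tsc2-/-, p53-/- MEFs (empty-vector stable) grown in DMEM + 10% FBS were exposed to compounds for 24 hrs at 37 degree Celsius, fixed, and stained with Alexa-488 anti-phospho-rpS6 Ser235/236 plus Hoechst. Imaging gave the percentage of positive cells per well.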
# [8] = High Content Imaging Cell-Based qHTS for Inhibitors of the mTORC1 Signaling Pathway in MEF Cells (AID 2667); conditions: at 38.3 µM (top of the series)
# Procedure, shortened: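 Tsc2-/-, p53-/- MEFs stably re-expressing WT Tsc2, grown in DMEM + 10% FBS, were treated with compounds for 24 hrs at 37 degree Celsius, fixed, and stained with Alexa-488 phospho-rpS6 Ser235/236 antibody plus Hoechst; results given as % positive cells.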
# [9] = Cytometry Cell-Based qHTS for Inhibitors of the mTORC1 Signaling Pathway in MEF cells (AID 2668); conditions: mTORC1 pathway readout; at 38.3 µM (top of the series);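 further: Tsc2-/- p53-/- mouse embryonic fibroblasts stably re-expressing wild-type Tsc2; percent cells positive for phospho-rpS6 Ser235/236 relative to propidium iodide stain; plate controls were DMSO wells for no effect and 7.5 nM rapamycin control wells for full effect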
# Procedure, shortened: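 MEFs (Tsc2-/-, p53-/- stably expressing WT Tsc2) treated 24 h at 37 degree Celsius, fixed, stained with Alexa-488 anti-phospho-rpS6 Ser235/236 and propidium iodide; Acumen laser scanning. Reported as % positive cells, phospho-S6 normalized to PI.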
# [10] = Validation screen for small molecules that induce DNA re-replication in MCF 10A normal breast cells (AID 463097); conditions: MCF 10A cells, DNA re-replication phenotype imaging; at 46.1 µM (top of the series); further: 0% is about no effect; nearly all actives have a fitted effect of over 60% in size
# From the text: NIH Molecular Libraries Probe Production Network [MLPCN]
# as §1
# Assay Provider: Melvin DePamphilis, NICHD, NIH
# Eukaryotic cells normally restrict genome duplication to once per cell division. When this process is aberrant, DNA re-replication occurs when cells reinitiate DNA replication before the first round of replication is complete. DNA re-replication induces the DNA damage response, arrests cell proliferation, and triggers apoptosis. The cell cycle components cyclin A, Cdt-1, Cdc6 and geminin are critical regulators of this process and their misregulation results in DNA re-replication in normal and cancer cells. To identify compounds that induce re-replication in normal cells, an image-based assay was used to measure DNA content of nuclei, as detected by the fluorescent DNA binding dye, Hoechst. Cell nuclei were imaged by a fluorescence scanning plate imager and compounds that induce DNA re-replication were identified by the increase of nuclei with elevated fluorescence intensity.
# For screening, 250 cells in 5 uL/well were dispensed into black clear 1536-well plates (Aurora) using a solenoid-based dispenser. Following transfer of 23 nL compound or DMSO vehicle by a pin tool, the plates were incubated 48 hr at 37 C and 5% CO2. […]
smiles,measurement,setting,value
Cc1ccc([N+](=O)[O-])cc1[N+](=O)[O-],activation,[1],inactive: 0.331%
[NH4+].[O-][Cl+3]([O-])([O-])[O-],activation,[1],inactive: -0.146%
O=[N+]([O-])c1cccc([N+](=O)[O-])c1,activation,[1],inactive: -0.609%
CCC(C)(OO)OOC(C)(CC)OO (stereo unspecified),activation,[1],inactive: 0.0975%
C/C1=C2N=C(/C=C3N=C(/C(C)=C4\[N-][C@@](C)([C@H]5N=C1[C@@](C)(CCC(=O)NC[C@H](C)OP(=O)([O-])O[C@@H]1[C@H](O)[C@H](n6cnc7cc(C)c(C)cc76)O[C@@H]1CO)[C@@H]5CC(N)=O)[C@](C)(CC(N)=O)[C@H]4CCC(N)=O)[C@@](C)(CC(N)=O)[C@@H]\3CCC(N)=O)C(C)(C)[C@@H]/2CCC(N)=O.[C-]#N.[Co+3],"activity change, negative = inhibition",[2],inactive: 1.76% [at 25.7 µM]
CCN(CCCl)Cc1ccccc1C,"activity change, negative = inhibition",[2],inactive: 6.87%
OCCSCCO,"activity change, negative = inhibition",[2],inactive: 3.57%
Cc1ccc([N+](=O)[O-])c([N+](=O)[O-])c1,activation,[1],inactive: 1.26%
CCOP(=O)(CC)OCC,activation,[1],inactive: 0.826%
O=[N+]([O-])[O-].[NH4+],activation,[1],inactive: -0.0807%
Cc1c([N+](=O)[O-])cccc1[N+](=O)[O-],activation,[1],inactive: -0.524%
N#[O+].[C-]#N.[C-]#N.[C-]#N.[C-]#N.[C-]#N.[Fe+2].[Na+].[Na+],"activity change, negative = inhibition",[2],inactive: -4.01%
same,"activity change, negative = inhibition",[3],inactive: 2.33%
same,activity change (ratio),[4],inactive: 21.5%
same,"activity change, negative = inhibition",[5],inactive: 3.11%
same,"activity change, negative = inhibition",[6],inactive: 3.04%
same,outcome,[7],inactive
same,outcome,[8],inactive
same,"activity change, negative = inhibition",[9],inactive: -4.09%
same,re-replication induction,[10],inactive: -8.85%
Cc1cccc([N+](=O)[O-])c1[N+](=O)[O-],activation,[1],inactive: 1.31%
